Reference: US7402687B2, “Dihydrobenzofuran derivatives and uses thereof” (Wyeth, priority 2005, dated 2008)

Chains of the proteins cited; added tags and fusions are not shown. Residues count along the entry.
UniProt P28335, 33-458: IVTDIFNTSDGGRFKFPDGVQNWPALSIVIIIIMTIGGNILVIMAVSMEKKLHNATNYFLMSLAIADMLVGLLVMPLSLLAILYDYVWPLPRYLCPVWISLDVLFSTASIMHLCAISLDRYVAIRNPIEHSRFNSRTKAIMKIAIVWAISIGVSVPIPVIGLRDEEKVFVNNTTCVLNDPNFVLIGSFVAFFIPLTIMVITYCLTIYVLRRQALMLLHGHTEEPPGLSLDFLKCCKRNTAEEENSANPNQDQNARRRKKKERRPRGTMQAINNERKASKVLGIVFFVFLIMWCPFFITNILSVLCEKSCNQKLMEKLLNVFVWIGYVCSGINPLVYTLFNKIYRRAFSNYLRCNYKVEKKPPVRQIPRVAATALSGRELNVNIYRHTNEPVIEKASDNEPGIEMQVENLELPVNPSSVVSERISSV

Key:
human 5-HT2C receptor = human 5-HT2C receptor (Homo sapiens, UniProt P28335); settings: calcium mobilization, Fluo-3-AM, CHO cells expressing human 5-HT2C; % of maximal 5-HT response
[1] = target: T1, human 5-hydroxytryptamine-2C (h5-HT2C) receptor (Homo sapiens, UniProt P28335); test: [125I]DOI competition binding at h5-HT2C receptor in transfected CHO cell membranes; settings: [125I]DOI displacement, CHO membranes expressing h5-HT2C; 95% confidence interval in adjacent column
T1 construct: expressed in transfected cells; host or cells: CHO (Chinese Hamster Ovary) cells; membrane preparation

## 1-(2,5-dimethoxy-4-iodophenyl)isopropylamine [DOI]
Human 5-HT2C receptor
  EC50: 0.5 nM
[1]
  Ki: 6.2 nM
